From ChEMBL document CHEMBL4145520, “Small-molecule Mcl-1 inhibitors: Emerging anti-tumor agents” (Eur J Med Chem, 2018)

Organism: Homo sapiens
Experiment: Selectivity ratio of IC50 for biotin labelled Bid-BH3 binding to GST-tagged BCL-XL (unknown origin) to IC50 for biotin labelled Bid-BH3 binding to GST-tagged MCL1 (unknown origin)

Ratio IC50: 16.4
SMILES: O=C(O)CSc1ccc(C(=O)c2[nH]c(Cl)c(Cl)c2-n2c(C(=O)c3ccc(SCC(=O)O)cc3O)cc(Cl)c2Cl)c(O)c1
